Results as given in US8936941B2, “Compositions useful for cancer detection and treatment, a cancer stem cell model, and methods of production and use thereof” (priority 2008, dated 2015).

Test system: PICSCs
Assay: Growth and survival of PICSCs after drug treatment
Type: cell-based, mouse
Conditions: 100 μM drug, 48 hours
Description: The PICSCs cells were treated with 100 μM drug (suprapharmacological dose) for 48 hours, and their growth and survival were evaluated. […] Moreover, the in vitro testing strategies allows for a mechanistic study of such compounds.

Erbitux: standard chemotherapeutic drug Erbitux (ERX)
growth and survival of PICSCs: no significant effect
